Target: Carbonic anhydrase 2 (Homo sapiens, UniProt P00918)
Assay: Inhibition of human carbonic anhydrase 2 esterase activity by non-competitive Lineweaver-Burke plot

Ki: 3.66 mM
SMILES: CC(=O)Oc1ccccc1C(=O)O [ASPIRIN]

— ChEMBL document CHEMBL1152236 (Bioorg Med Chem, 2008)
